Experimental data published in publication PMC11982232, “Factors affecting irreversible inhibition of EGFR and influence of chirality on covalent binding” (Communications Chemistry, 2025).

By UniProt entry, the sequences of proteins in these tests, tags left out. Where a name states a change or a piece, a line headed by the entry shows the natural chain unless it says otherwise. Residues count along the entry.
UniProt P00533, 25-1210 limits assumed: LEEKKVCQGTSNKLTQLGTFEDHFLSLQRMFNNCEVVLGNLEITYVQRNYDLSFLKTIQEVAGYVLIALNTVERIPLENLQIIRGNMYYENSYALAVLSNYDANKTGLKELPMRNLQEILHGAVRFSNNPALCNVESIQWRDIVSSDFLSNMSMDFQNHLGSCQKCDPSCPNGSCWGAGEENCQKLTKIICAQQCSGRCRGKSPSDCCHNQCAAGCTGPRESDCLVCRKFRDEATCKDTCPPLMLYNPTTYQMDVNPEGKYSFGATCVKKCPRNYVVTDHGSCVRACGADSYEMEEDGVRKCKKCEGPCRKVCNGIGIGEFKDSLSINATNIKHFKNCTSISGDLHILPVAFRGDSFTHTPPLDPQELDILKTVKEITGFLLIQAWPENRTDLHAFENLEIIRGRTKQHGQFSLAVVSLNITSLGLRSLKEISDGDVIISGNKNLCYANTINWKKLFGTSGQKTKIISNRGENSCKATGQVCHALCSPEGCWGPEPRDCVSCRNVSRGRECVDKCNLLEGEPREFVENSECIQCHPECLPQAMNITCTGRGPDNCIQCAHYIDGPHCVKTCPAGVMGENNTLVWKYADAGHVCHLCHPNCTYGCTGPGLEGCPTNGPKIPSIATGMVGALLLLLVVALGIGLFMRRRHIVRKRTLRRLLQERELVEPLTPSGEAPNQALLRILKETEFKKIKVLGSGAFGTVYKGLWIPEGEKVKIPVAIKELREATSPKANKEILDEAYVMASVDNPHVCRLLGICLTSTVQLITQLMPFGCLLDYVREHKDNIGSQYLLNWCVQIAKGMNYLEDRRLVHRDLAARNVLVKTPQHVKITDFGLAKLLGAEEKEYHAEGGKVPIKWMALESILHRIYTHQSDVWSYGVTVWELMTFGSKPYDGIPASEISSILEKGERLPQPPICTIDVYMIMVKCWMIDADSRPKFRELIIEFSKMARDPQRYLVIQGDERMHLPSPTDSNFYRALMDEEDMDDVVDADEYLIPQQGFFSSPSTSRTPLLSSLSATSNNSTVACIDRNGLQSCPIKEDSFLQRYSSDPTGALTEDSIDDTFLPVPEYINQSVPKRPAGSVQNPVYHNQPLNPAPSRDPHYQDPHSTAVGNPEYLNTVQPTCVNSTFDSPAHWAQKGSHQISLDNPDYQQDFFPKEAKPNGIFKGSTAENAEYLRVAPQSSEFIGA
UniProt P00533, 25-1210 T790M/L858R limits assumed: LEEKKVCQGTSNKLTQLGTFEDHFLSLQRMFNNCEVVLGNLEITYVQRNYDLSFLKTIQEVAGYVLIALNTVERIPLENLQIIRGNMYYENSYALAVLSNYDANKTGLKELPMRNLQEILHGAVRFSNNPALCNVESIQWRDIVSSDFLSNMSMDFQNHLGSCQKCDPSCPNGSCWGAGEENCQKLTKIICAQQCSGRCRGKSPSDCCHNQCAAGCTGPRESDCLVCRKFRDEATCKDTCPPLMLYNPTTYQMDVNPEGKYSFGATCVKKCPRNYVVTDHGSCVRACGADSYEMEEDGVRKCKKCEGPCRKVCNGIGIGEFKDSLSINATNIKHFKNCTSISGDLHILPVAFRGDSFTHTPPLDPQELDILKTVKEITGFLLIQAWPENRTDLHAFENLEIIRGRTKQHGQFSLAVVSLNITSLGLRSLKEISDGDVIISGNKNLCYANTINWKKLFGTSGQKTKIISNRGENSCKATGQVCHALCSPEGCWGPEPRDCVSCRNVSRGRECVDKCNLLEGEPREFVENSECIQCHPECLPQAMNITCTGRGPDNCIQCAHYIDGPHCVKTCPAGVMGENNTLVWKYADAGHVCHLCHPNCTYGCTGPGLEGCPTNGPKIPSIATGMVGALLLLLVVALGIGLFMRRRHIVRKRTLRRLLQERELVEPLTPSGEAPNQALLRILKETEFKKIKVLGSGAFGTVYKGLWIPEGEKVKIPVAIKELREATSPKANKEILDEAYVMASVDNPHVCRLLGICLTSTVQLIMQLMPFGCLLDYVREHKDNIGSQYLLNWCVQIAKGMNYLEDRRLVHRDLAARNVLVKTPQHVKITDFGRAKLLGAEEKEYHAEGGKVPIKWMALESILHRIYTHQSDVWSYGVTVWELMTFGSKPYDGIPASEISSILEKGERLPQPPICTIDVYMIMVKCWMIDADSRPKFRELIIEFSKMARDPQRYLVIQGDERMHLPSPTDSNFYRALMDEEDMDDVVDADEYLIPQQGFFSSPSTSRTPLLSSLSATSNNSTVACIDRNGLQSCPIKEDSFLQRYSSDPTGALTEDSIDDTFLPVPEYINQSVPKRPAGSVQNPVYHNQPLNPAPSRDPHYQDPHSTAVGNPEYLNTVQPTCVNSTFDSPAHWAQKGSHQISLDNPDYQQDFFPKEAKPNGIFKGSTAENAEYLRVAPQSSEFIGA

Assays:
EGFR WT = EGFR WT (Homo sapiens, UniProt P00533); experiment: TR-FRET probe displacement assay, EGFR WT; format: binding; settings: 30 min incubation, mean of at least 3 replicates
EGFR DM (L858R/T790M) = EGFR DM (L858R/T790M) (Homo sapiens, UniProt P00533, L858R/T790M); experiment: TR-FRET probe displacement assay, EGFR DM; format: binding; settings: 30 min incubation, mean of at least 3 replicates
[1] = GSH reactivity (glutathione half-life); settings: 4.6 mM GSH, 50 µM compound, pH 7.4 phosphate buffer, 37 °C

Row | SMILES | WT pIC50 (EGFR WT) | DM pIC50 (EGFR DM (L858R/T790M)) | GSH t1/2 [1] [m]
1 | C#CC(=O)N1CCC(Oc2cc3c(Nc4cc(Cl)ccc4F)ncnc3cc2OC)CC1 | 8.1 ± 0.09 | 7.9 ± 0.09 | 
2 | C#CC(=O)N1CCC(Oc2cc3c(Nc4cccc(Cl)c4F)ncnc3cc2OC)CC1 | 8.2 ± 0.04 |  | 
3 | C#CC(=O)N1CC[C@@H](Oc2cc3c(Nc4ccc(F)c(Cl)c4)ncnc3cc2OC)C1 | 7.8 ± 0.09 | 8.2 ± 0.1 | 50
4 | C#CC(=O)N1CCC(Oc2cc3c(Nc4ccc(Cl)c(Cl)c4F)ncnc3cc2OC)CC1 | 8.0 ± 0.05 | 7.8 ± 0.7 | 
5 | C#CC(=O)N1CCC(Oc2cc3c(Nc4ccc(F)c(Cl)c4)ncnc3cc2OC)CC1 | 8.3 ± 0.1 |  | 
6 | C#CC(=O)N1CC[C@H](Oc2cc3c(Nc4ccc(F)c(Cl)c4)ncnc3cc2OC)C1 | 7.6 ± 0.05 | 7.8 ± 0.5 | 45
7 | C=CC(=O)N1CCC(Oc2ccc3ncnc(Nc4cccc(Cl)c4F)c3c2)CC1 | 7.7 ± 0.00 |  | 
8 | C=CC(=O)N1CCC(Oc2cc3c(Nc4cc(Cl)ccc4F)ncnc3cc2OC)CC1 | 7.8 ± 0.2 | 7.5 ± 0.1 | 
